Drawing on US20200325208A1, this text covers EC50 for one substance.

The target of this experiment is Human VEGF121/VEGF-A protein (human VEGF 121 isoform) with 6-His tag (human) (UniProt P15692). Kind of experiment: ELISA, antigen captured by anti-His antibody on plate, HRP anti-IgG Fc detection.

The substance “TNFα/LC-GS6-VEGFR-IgG1 (from UniProt P0DOX5 2-449)” gave a concentration for a half-maximal effect (EC50) of 19.5 nM.
